What was measured:
[1] = target: JAK2 kinase domain (JH1)
[2] = target: JAK3
[3] = target: TYK2 kinase domain (JH1)
[4] = target: IL-2Rγ (pY357); assay: ITC
[5] = target: JAK1 (Y1034); assay: ITC
[6] = target: mIL-2Rβ (pY392); assay: ITC
[7] = target: IL-2Rβ (pY358); assay: ITC
[8] = target: IL-2Rβ (pY510); assay: ITC
[9] = target: IL-2Rγ (pY325); assay: ITC
[10] = target: IL-2Rγ (pY363); assay: ITC
[11] = target: JAK3 (pY980); assay: ITC
[12] = target: IL-2Rβ (pY338); assay: ITC
[13] = target: IL-2Rγ (pY303); assay: ITC
[14] = target: JAK1 kinase domain (JH1) (Homo sapiens (Human)) (UniProt P23458); assay: cell-based or functional assay

Sequences of proteins named here, by UniProt entry; tags and fusion partners are left off. Residues count along the entry.
UniProt P23458, 854-1154 limits assumed: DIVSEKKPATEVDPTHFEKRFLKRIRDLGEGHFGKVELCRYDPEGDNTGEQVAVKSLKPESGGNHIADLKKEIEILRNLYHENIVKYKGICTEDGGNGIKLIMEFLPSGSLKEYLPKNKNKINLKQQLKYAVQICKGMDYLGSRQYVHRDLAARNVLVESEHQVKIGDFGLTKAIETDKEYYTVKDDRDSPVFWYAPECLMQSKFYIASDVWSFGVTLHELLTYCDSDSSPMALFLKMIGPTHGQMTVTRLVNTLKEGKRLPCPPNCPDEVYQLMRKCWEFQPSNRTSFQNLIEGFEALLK

Substance	IC50 [1]	IC50 [2]	IC50 [3]	Kd [4]	Kd [5]	Kd [6]	Kd [7]	Kd [8]	Kd [9]	Kd [10]	Kd [11]	Kd [12]	Kd [13]	IC50, inhibition of the JAK1 kinase domain (JH1) in an in vitro kinase reaction [14]
hCIS-SH2-BC: recombinant trimeric complex of a human GST-CIS construct (hCIS-SH2) with Elongins B and C (from UniProt Q9NSE2 66-258; Q15370 1-118; Q15369 17-112)	2.4 µM	6.7 µM	> 20 µM	> 10 µM	> 10 µM	1.5 µM	> 10 µM	> 10 µM	> 10 µM	> 10 µM	0.8 µM	7 µM	> 10 µM	
human CIS lacking the PEST motif (residues 173-202; APEST), trimeric complex with elongin B and elongin C (from UniProt Q9NSE2 1-258; Q15370 1-118; Q15369 17-112)														3320 µM

Source: US20220267447A1
